Patent US20230310542A1, “EPIGENETIC MODIFIERS TO TREAT RETINAL DEGENERATIONS” (priority 2022, published 2023)

Test: Animal weight gain, mortality and activity during inhibitor treatment
Method: All inhibitors were diluted in 0.9% bacteriostatic sodium chloride (saline).
During all treatments animal weight gain was monitored.

## C/C=C1\NC(=O)[C@H]2CSSCC/C=C/[C@H](CC(=O)N[C@H](C(C)C)C(=O)N2)OC(=O)[C@H](C(C)C)NC1=O [romidepsin]
mouse, in vivo
  activity of treated animals: less active
Romidepsin lower concentrations than 2 mg/kg, rd10 mice
  mortality: increased mortality
